Values of other authors, collected in patent US4382181A, “Detection of atoms using monochromatic X-rays” (priority 1981, dated 1983).

Test system: plasma proteins such as T4 -binding globulin, T4 -binding prealbumin, and albumin
Conditions: usual value

N[C@@H](Cc1cc(I)c(Oc2cc(I)c(O)c(I)c2)c(I)c1)C(=O)O [T4, L-thyroxine]
fraction of T4 in serum in free form: 0.04-0.05%
